Assay results published in patent US11918581B2, “Combination therapy comprising JAK pathway inhibitor and rock inhibitor” (Incyte Corporation, priority 2021, dated 2024).

Target: human JAK1 (a.a. 837-1142) (Homo sapiens, UniProt P23458)
Experiment: In vitro JAK kinase assay (HTRF), JAK1
Type: biochemical
Settings: 1 mM ATP

IC50: < 10 nM
Compound: CN(C)Cc1cc(F)cc(OC2CCN(CC(CC#N)n3cc(-c4ncnc5[nH]ccc45)cn3)CC2)c1 (single isomer, unassigned) [Compound 14, 4-(4-{3-[(dimethylamino)methyl]-5-fluorophenoxy}piperidin-1-yl)-3-[4-(7H-pyrrolo[2,3-d]pyrimidin-4-yl)-1H-pyrazol-1-yl]butanenitrile]
